Laboratory results reported in patent US8735439B2, “Chlorin e6-folic acid conjugate, preparation method thereof, and a pharmaceutical composition for the treatment of cancer comprising the same” (Diatech Korea Co., Ltd., priority 2009, dated 2014).

How the values were obtained:
[1] = in D2O, standard for φΔ measurement; cited from earlier work
[2] = tested on: HeLa tumor cells; test: Cytotoxicity (antiproliferative assay) in the absence of light exposure; assay type: cell-based; settings: 24 hr incubation
Experimental: Cytotoxicity was analyzed, considering the intensity of proliferative processes in cells, photosensitizer concentration, and dose of optical power. For each point, 3 flasks with cell monolayer were used.
The monolayer culture of HeLa tumor cells was chosen and used as the cell.
The culture of HeLa tumor cells was grown in nutrient medium 199 or in nutrient medium containing hemohydrolyzate supplemented with 10% fetal bovine serum and […] of kanamycin. […]
Flasks with light-protective cover (dark cytotoxicity) were incubated at 37.5° C. for 1 hour. The cells were washed with Hank's solution 4 times. 2.0 ml of fresh nutrient medium were added, and the cells were irradiated at the temperature of melting ice for 5, 10, 15 or 20 mins by the light flux of a “METALAZ” laser medical device (wavelength: 627.8 nm, 578.2 or 510.6 nm) or “LD 680-2000” (wavelength: 670-690 nm), depending on the wavelength of maximum spectral absorption of the studied photosensitizer, at a dose of 40 J/cm^2. After 20-24 hours, the number of tumor cell was counted in Goriaev's chamber.

## Tetra(n-sulfophenyl) porphyrin [Tetra(n-sulfophenyl) porphyrin (TSPP)]
[1]
  φΔ of the standard: 0.7

## [γ-(6-aminohexyl)folic acid]-chlorin e6 [chlorin e6 conjugate]
[2]
  cytotoxicity in the absence of light exposure: no cytotoxicity
